Tests used:
[1] = system: A375 cells; assay: Inhibition of A375 cell proliferation; conditions: 72 h
Description: A375 cells (ATCC, CRL-1619) were cultured in DMEM complete medium (+10% FBS) in a CO2 incubator at 37°C for 48 h. The cells were trypsinized and counted, and then the density was adjusted to 1.67 × 10^4 cells/mL. 90 µL (1500 cells) of cells were inoculated into each well of a 96-well transparent bottom plate, and the plate was transferred to a CO2 incubator and the cells were cultured overnight at 37°C. After the cells were incubated overnight, 10 µL of the diluted compound (final concentration starting from 10 µM, 3-fold dilution, 11 concentrations) was added to each well using a multi-channel pipette. The positive control was a serum-free medium containing DMSO. After mixing evenly, the cells were placed in a CO2 incubator at 37°C for 72 h. After the incubation, the CellCounting-Lite®2.0 kit detection solution (Vazyme, DD1101-03) was taken out and returned to room temperature. 100 µL of CellCounting-Lite2.0 detection solution was added to each well, the plate was sealed with a sealing film, and the plate was placed on a shaker for shaking for 15 min (the whole process should be kept away from light). The Luminescence module of the microplate reader (BMG LRBTECH) was used to detect the fluorescence signal value LUM of each well. The formula Inhibition rate% = ((LUM Solvent−LUM Compound)/(LUM Solvent))∗100% [formula] was used to calculate the inhibition rate of the compound. The Graphpad software log(inhibitor) vs. response -- Variable slope (four parameters) equation was used to perform fitting analysis and calculate the IC50value of the sample. The ordinate of the data is the percentage of inhibition rate, and the abscissa is the logarithm of the sample concentration (Log10).

Chains of the proteins cited; added tags and fusions are not shown. Residues count along the entry.
UniProt P15056, 416-766 V600E limits assumed: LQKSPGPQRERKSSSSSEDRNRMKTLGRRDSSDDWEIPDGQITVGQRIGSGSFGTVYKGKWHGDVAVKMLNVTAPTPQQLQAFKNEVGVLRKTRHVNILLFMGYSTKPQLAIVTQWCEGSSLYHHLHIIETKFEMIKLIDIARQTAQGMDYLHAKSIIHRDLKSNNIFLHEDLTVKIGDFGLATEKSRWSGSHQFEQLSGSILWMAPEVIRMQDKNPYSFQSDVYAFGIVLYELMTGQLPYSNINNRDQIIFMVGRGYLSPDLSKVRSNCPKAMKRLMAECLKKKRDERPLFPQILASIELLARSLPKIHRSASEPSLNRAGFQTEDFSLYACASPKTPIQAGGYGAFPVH

[2] = Beagle dog pharmacokinetic assay; conditions: beagle dogs
Description: Experimental animals: male beagle dogs, about 8-11 kg, 6 beagle dogs/compound, purchased from Beijing Marshall Biotechnology Co., Ltd.
Experimental method: On the day of the experiment, the beagle dogs were randomly grouped according to their body weights. The animals were fasted with water available for 12 to 14 h one day before the administration and were fed 4 h after the administration. The animals were administered according to Table 5. Table 5. Administration information
Before and after the administration, 1 ml of blood was taken from the jugular veins or limb veins, and placed in an EDTAK2 centrifuge tube. Centrifugation was performed at 5000 rpm at 4°C for 10 min, and plasma was collected. The blood collection time points for the intravenous group and intragastric group were both 0 min, 5 min, 15 min, 30 min, 1 h, 2 h, 4 h, 6 h, 8 h, 10 h, 12 h, 24 h, 48 h, and 72 h. Before analysis and detection, all samples were stored at -80°C. The samples were analysed quantitatively by LC-MS/MS. Table 6. Pharmacokinetic parameters of test compounds in plasma of beagle dogs

[3] = target: BRAFV600E (Homo sapiens, UniProt P15056, V600E); assay: BRAFV600E enzyme activity test (ADP-Glo); conditions: inhibitory activity on BRAFV600E
Description: BRAFV600E (ABCAM, ab204154) and MEK1K97R (USBio, M2865-06J) proteins were diluted at an appropriate dilution factor using 1 × Assay buffer (PH = 7.4 Tris-HCl buffer, supplemented with 10 mM MgCl2) such that the final concentration of BRAFV600E was 10 ng/µL and the final concentration of substrate MEK1K97R was 1 µM. 1 µL of BRAFV600E, 1 µL of compound serial dilution (final concentration starting from 2 µM, 5-fold dilution, 8 concentrations), and 6 µL of Assay buffer were pipetted to a 384-well reaction plate with a capacity of 20 µL. The plate was pre-incubated in a constant temperature incubator at 37°C for 30 min. 1 µL of 200 µM ATP and 1 µM MEK1 K97R were added to the reaction wells corresponding to the compound incubation, mixed evenly by vortexing, and preincubation was performed in a constant temperature incubator at 37°C for 60 min for enzymatic reaction. After the reaction was completed, 5 µL of the above reaction product was pipetted to another 384-well plate, and 5 µL of formulated ADP-Glo™ Reagent (Promega, V9101) was added and mixed evenly by pipetting, and then the plate was placed at room temperature for 40 min. 10 µL Kinase Detection Reagent was added to the 384-well plate and incubated at room temperature for 40 min. Finally, a microplate reader (BMG LRBTECH) was used and Luminescence module was selected to detect the LUM fluorescence value of each well (the gain value was fixed at 3600), and the formula Inhibition rate% = (1−(LUM Compound−LUM Background)/(LUM Solvent−LUM Background))∗100% [formula] was used to calculate the inhibition rate of the compound on BRAFV600E. The Graphpad software log(inhibitor) vs. response -- Variable slope (four parameters) equation was used to perform fitting analysis and calculate the IC50value of the sample.

[4] = Rat pharmacokinetic assay; conditions: rats, plasma
Description: 5.1 Experimental animals: Male SD rats, about 220 g, 6-8 weeks old, 6 rats/compound, purchased from Chengdu Dossy Experimental Animals Co., Ltd.
5.2 Experimental design: On the day of the experiment, the SD rats were randomly grouped according to their body weights. The animals were fasted with water available for 12 to 14 h one day before the administration and were fed 4 h after the administration. Table 7 Administration information
Before and after the administration, 0.1 ml of blood was taken from the orbit of the animals under isoflurane anaesthesia and placed in an EDTAK2 centrifuge tube. The blood was centrifuged at 5000 rpm and 4°C for 10 min to collect plasma. Blood sampling time points for the intravenous administration group: 0, 5 min, 15 min, 30 min, 1 h, 2 h, 4 h, 6 h, 8 h, and 24 h; blood sampling time points for the intragastric administration group: 0, 5 min, 15 min, 30 min, 1 h, 2 h, 4 h, 6 h, 8 h and 24 h. Before analysis and detection, all samples were stored at -80°C. Table 8 Pharmacokinetic parameters of test compounds in plasma of rats

[5] = Mouse pharmacokinetic assay; conditions: mice; for AUC0-t / T1/2 / CL / Vdss: plasma
Description: 1.1 Experimental animals: male ICR mice, 20-25 g, 12 mice/compound. purchased from Chengdu Dossy Experimental Animals Co., Ltd.
1.2 Experimental design: On the day of the experiment, the ICR mice were randomly grouped according to their body weights. The animals were fasted with water available for 12 to 14 h one day before the administration and were fed 4 h after the administration. Table 3. Administration information
Before and after administration, 0.06 mL of blood was taken from the orbit under isoflurane anaesthesia and placed in an EDTAK2 centrifuge tube for centrifugation at 5000 rpm at 4°C for 10 min, followed by plasma collection. The blood collection time points for the intravenous administration group and intragastric administration group were 0, 5 min, 15 min, 30 min, 1 h, 2 h, 4 h, 7 h and 24 h. Before analysis and detection, all samples were stored at -80°C, and a quantitative analysis of samples was performed using LC-MS/MS. Table 4. Pharmacokinetic parameters of test compounds in plasma of mice

[6] = reported; cited from earlier work
[7] = intragastric administration (10 mg/kg)
[8] = intravenous administration (2.5 mg/kg)

N#Cc1c(NS(=O)(=O)N2CC3(CCC3)C2)cc(F)c(F)c1Oc1ccc2ncn(CCF)c(=O)c2c1
IC50 [1]: < 10 nM | AUC0-t ([2]; i.g. (3 mg/kg), plasma): 84.281 µg·h/mL | AUC0-t ([2]; i.v. (0.5 mg/kg), plasma): 31.095 µg·h/mL | Vdss ([2]; i.v. (0.5 mg/kg), plasma): 0.08 L/kg | IC50 [3]: < 10 nM

N#Cc1c(NS(=O)(=O)N2CC3(CC3)C2)ccc(F)c1Oc1ccc2ncn(CCF)c(=O)c2c1
IC50 [1]: < 10 nM | AUC0-t [4, 7]: 4256.852 µg·h/mL | T1/2 [4, 7]: 60.6 h | AUC0-t [4, 8]: 1156.844 µg·h/mL | CL [4, 8]: 0.036 mL/min/kg | T1/2 [4, 8]: 50.9 h | Vdss [4, 8]: 0.156 L/kg

Cn1cnc2ccc(Oc3c(F)ccc(NS(=O)(=O)N4CC5(CCC5)C4)c3C#N)cc2c1=O
IC50 [1]: < 10 nM | F ([2]; i.g. (3 mg/kg)): ≥ 98% | AUC0-t ([2]; i.g. (3 mg/kg), plasma): 116.724 µg·h/mL | AUC0-t ([2]; i.v. (0.5 mg/kg), plasma): 17.68 µg·h/mL | CL ([2]; i.v. (0.5 mg/kg), plasma): 0.492 mL/min/kg | Vdss ([2]; i.v. (0.5 mg/kg), plasma): 0.156 L/kg | F ([5]; i.g. (10 mg/kg)): 96.5% | brain/plasma ratio ([5]; i.g. (10 mg/kg)): 0.013 | AUC0-t ([5]; i.g. (10 mg/kg)): 861.406 µg·h/mL | T1/2 ([5]; i.g. (10 mg/kg)): 10.7 h | AUC0-t ([5]; i.v. (2.5 mg/kg)): 223.249 µg·h/mL | CL ([5]; i.v. (2.5 mg/kg)): 0.133 mL/min/kg | T1/2 ([5]; i.v. (2.5 mg/kg)): 14.8 h | Vdss ([5]; i.v. (2.5 mg/kg)): 0.148 L/kg | IC50 [3]: 10 to 50 nM

N#Cc1c(NS(=O)(=O)N2CC3(CCC3(F)F)C2)ccc(F)c1Oc1ccc2ncn(CC(F)F)c(=O)c2c1
IC50 [1]: < 10 nM

N#Cc1c(NS(=O)(=O)N2CC[C@@H](F)C2)cc(F)c(F)c1Oc1ccc2ncn(CCF)c(=O)c2c1
IC50 [1]: < 10 nM

N#Cc1c(NS(=O)(=O)N2CC3(CCC3)C2)ccc(F)c1Oc1ccc2ncn(CC(F)(F)F)c(=O)c2c1
IC50 [1]: < 10 nM | IC50 [3]: 10 to 50 nM

Cc1cnc2c3cc(Oc4c(F)ccc(NS(=O)(=O)N5CC6(CCC6)C5)c4C#N)ccc3ncn12
IC50 [1]: < 10 nM | brain/plasma ratio ([5]; i.g. (10 mg/kg)): 0.0162 | AUC0-t ([5]; i.g. (10 mg/kg)): 442.783 µg·h/mL | T1/2 ([5]; i.g. (10 mg/kg)): 14.2 h | AUC0-t ([5]; i.v. (2.5 mg/kg)): 125.977 µg·h/mL | T1/2 ([5]; i.v. (2.5 mg/kg)): 7.5 h | Vdss ([5]; i.v. (2.5 mg/kg)): 0.135 L/kg

N#Cc1c(NS(=O)(=O)N2CC3(CCC3)C2)ccc(F)c1Oc1ccc2ncn(CC(F)F)c(=O)c2c1
IC50 [1]: < 10 nM | IC50 [3]: < 10 nM

Cn1cnc2ccc(Oc3c(F)ccc(NS(=O)(=O)N4CC5(CC5)C4)c3C#N)cc2c1=O
IC50 [1]: < 10 nM

CC(C)(C)c1nc(-c2cccc(NS(=O)(=O)c3c(F)cccc3F)c2F)c(-c2ccnc(N)n2)s1
total brain-to-plasma ratio [6]: 0.023

N#Cc1c(NS(=O)(=O)N2CC3(CCC3)C2)ccc(F)c1Oc1ccc2ncn(C3COC3)c(=O)c2c1
IC50 [1]: < 10 nM

N#Cc1c(NS(=O)(=O)N2CC3(CC3)C2)ccc(F)c1Oc1ccc2ncn3ccnc3c2c1
IC50 [1]: < 10 nM

COn1cnc2ccc(Oc3c(F)ccc(NS(=O)(=O)N4CC[C@@H](F)C4)c3C#N)cc2c1=O
IC50 [1]: < 10 nM

Cn1cnc2ccc(Oc3c(F)ccc(NS(=O)(=O)N4CCC5CC54)c3C#N)cc2c1=O (racemic)
IC50 [1]: < 10 nM

N#Cc1c(NS(=O)(=O)N2CC3(CCC3F)C2)ccc(F)c1Oc1ccc2ncn(CC(F)F)c(=O)c2c1 (single isomer, unassigned)
IC50 [1]: < 10 nM | IC50 [3]: < 10 nM

N#Cc1c(NS(=O)(=O)N2CC3(CC3)C2)cc(F)c(F)c1Oc1ccc2ncn(CCF)c(=O)c2c1
IC50 [1]: < 10 nM

Cn1cnc2ccc(Oc3c(F)ccc(NS(=O)(=O)N4CC(CF)C4)c3C#N)cc2c1=O
IC50 [1]: < 10 nM

N#Cc1c(NS(=O)(=O)N2CC3(CCC3)C2)ccc(F)c1Oc1ccc2ncn(CCF)c(=O)c2c1
IC50 [1]: < 10 nM | IC50 [3]: < 10 nM

N#Cc1c(NS(=O)(=O)N2CC3(CCC3)C2)ccc(F)c1Oc1ccc2ncn(C3CC3)c(=O)c2c1
brain/plasma ratio ([5]; i.g. (10 mg/kg)): 0.0095 | AUC0-t ([5]; i.g. (10 mg/kg)): 848.012 µg·h/mL | T1/2 ([5]; i.g. (10 mg/kg)): 11.74 h | AUC0-t ([5]; i.v. (2.5 mg/kg)): 376.04 µg·h/mL | CL ([5]; i.v. (2.5 mg/kg)): 0.0822 mL/min/kg | T1/2 ([5]; i.v. (2.5 mg/kg)): 12.8 h | Vdss ([5]; i.v. (2.5 mg/kg)): 0.0837 L/kg | IC50 [3]: 10 to 50 nM

N#Cc1c(NS(=O)(=O)N2CC3(CCC3)C2)ccc(F)c1Oc1ccc2ncn3ccnc3c2c1
IC50 [1]: < 10 nM

— patent publication EP4843575A1, “PHARMACEUTICAL COMPOSITION COMPRISING BRAF INHIBITOR AND USE OF PHARMACEUTICAL COMPOSITION IN MEDICINE” (dated 2026)
